Assay results taken from patent publication US7846957B2, “Aromatase inhibition to enhance assisted reproduction” (Ares Trading S.A., priority 2001, dated 2010).

Tested on: unexplained infertility patients
Assay: Prospective controlled study: letrozole in addition to FSH vs FSH only, intrauterine insemination (Example 1)
Type: in vivo, human
Conditions: for Pregnancy rate: letrozole 2.5 mg/day day 3 to 7, FSH 50-150 IU/day
Procedure: This was a prospective controlled study that included a study group, the patients of which received letrozole (2.5 mg/day from (day 3 to 7 of the menstrual cycle) in addition to FSH and a control group that received FSH only. The study group included 12 unexplained infertility patients. The control group-consisted of 55 unexplained infertility patients. All patients received recombinant or highly purified FSH (50-150 IU/day starting on day 3 to 7 until day of hCG (10,000 IU) that was given when 2 leading follicles were >2 cm). The FSH regimen was based on the patient's clinical profile. Patients were not randomized. All patients had intrauterine insemination. There was no statistically significant difference between the study and control groups as regards age, weight, infertility duration, number of prior insemination cycles, semen parameters or type of FSH.

## FSH only: recombinant or highly purified follicle stimulating hormone, control group treatment
Day of menstrual cycle
  Day of hCG administration: 12
Number of follicles, on hCG day
  Follicle (>1.8 cm) on hCG day: 3.2
On hCG day
  Endometrial thickness (on hCG day): 12.1
  Estradiol on hCG day: 3140 pmol/L
  Estradiol/mature follicle: 969 pmol/L
  LH on hCG day (IU/L): 18.3 IU/L
Unexplained infertility, IUI
  Total FSH dose/cycle (IU): 1320 IU
  Pregnancy rate: 18%
Unexplained infertility, IUI, listed as FSH
  Pregnancy rate: 18%
